Assay results reported in patent US9050334B2, “MIF inhibitors and their uses” (INNOV88 LLC, priority 2010, dated 2015).

The chains behind the UniProt entries cited, without tags or fusion partners. Residues count along the entry.
UniProt P14174, 2-115 limits assumed: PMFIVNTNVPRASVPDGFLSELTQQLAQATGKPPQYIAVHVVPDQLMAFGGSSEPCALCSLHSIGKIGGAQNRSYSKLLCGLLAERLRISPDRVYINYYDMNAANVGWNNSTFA

Target: Native human MIF (Homo sapiens, UniProt P14174)
Assay: MIF tautomerase activity assay with hydroxyphenyl pyruvic acid (HPP) substrate
Conditions: read-out: Tautomerase IC50, absorbance at 300 nm

- IC50: 10 to 100 µM
SMILES: Cn1c(=O)c(C#N)c(NC2CN(S(=O)(=O)c3cccs3)C2)c2ccccc21
